# Experimental data: patent US20170174632A1, “4-OXO-1, 4-DIHYDROQUINOLINE-3-CARBOXAMIDE AS SELECTIVE LIGAND FOR CANNABINOID RECEPTOR 2 FOR DIAGNOSIS AND THERAPY” (priority 2014, published 2017)
# By UniProt entry, the sequences of proteins in these tests, tags left out.
# UniProt P34972, whole entry: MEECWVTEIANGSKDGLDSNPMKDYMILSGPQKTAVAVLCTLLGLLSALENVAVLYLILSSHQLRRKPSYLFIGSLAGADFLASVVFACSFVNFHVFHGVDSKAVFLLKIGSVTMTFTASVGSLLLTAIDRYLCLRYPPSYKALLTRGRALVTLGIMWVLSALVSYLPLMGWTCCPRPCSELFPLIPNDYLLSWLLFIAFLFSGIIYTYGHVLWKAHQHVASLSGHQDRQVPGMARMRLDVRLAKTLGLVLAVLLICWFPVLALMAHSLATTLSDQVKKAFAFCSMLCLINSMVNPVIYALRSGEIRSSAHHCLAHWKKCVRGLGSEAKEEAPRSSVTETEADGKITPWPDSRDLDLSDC
# Molecular target: CB2 (Homo sapiens, UniProt P34972)
# Test: In vitro competitive binding assay, [3H]CP55,940 displacement, hCB2 membranes
# Parameters: purchased PerkinElmer; host or cells: CHO-K1 cells, stably transfected (membrane preparation)
# Conditions: CHO-K1 membranes with human CB2, 1.4 nM [3H]CP55,940, Cheng-Prusoff, three experiments in triplicates; read-out: KiCB2
# Procedure: The following test was carried out in order to determine the binding affinity of the compounds of formula I towards CB2 and CB1: […]
# Competitive binding reactions were initiated by the addition of a membrane preparation obtained from CHO-K1 cells stably transfected with human CB1 and CB2, respectively, from PerkinElmer (0.5 pig/tube for hCB1 and hCB2) into incubation tubes. As displacer, 1.4 nM [^3H]CP55,940 (PerkinElmer) was used and 6 to 10 concentrations (ranging from 1 pM to 10 μM) of displacing ligand (compound to test) in assay buffer (50 mM TRIS, 1 mM EDTA, 3 mM MgCl2 and 0.05% bovine serum albumin, pH adjusted to 7.4) were added. Nonspecific binding was defined by the presence of 5 μM WIN-55212-2. After incubation at 30° C. for 90 min reactions were terminated by the addition of 3 mL ice cold assay buffer followed by rapid vacuum filtration through a Whatman GF/C filter (pre-soaked for 2 h in 0.05% polyethylenimine in water) and washed twice with 3 mL ice cold assay buffer. The bound activity was counted in a Beckman LS 6500 Liquid Scintillation Counter after adding 3 mL scintillation cocktail (Ultima Gold, Perkin Elmer) and thorough shaking. For each mean value three experiments, each in triplicates, were performed. K, values were determined with the equation from Cheng-Prusoff.
smiles,measurement,value
"CCOCCn1cc(C(=O)NC23CC4CC(CC(C4)C2)C3)c(=O)c2cccc(OC)c21 [RS-016, N-(1-adamantyl)-1-(2-ethoxyethyl)-8-methoxy-4-oxo-1,4-dihydroquinoline-3-carboxamide]",Ki,0.7 ± 0.6 nM
